The results in this text go back to PubChem BioAssay AID686971 (National Center for Advancing Translational Sciences (NCATS), 2013).

The list shows a part of the results, in another mix than the full data. Results filed as inconclusive are left out. Some structures show a salt or complex split into parts, the way the source records it. Active and inactive are the calls of the source. Calls follow the shape of the dose curve; as a rule, active = well fitted cell-killing curve with a large enough effect; inconclusive = small, poorly fitted or top-dose-only effect, or effect the other way, or another doubt; inactive = no such curve, though single readings can be large or run the other way.

The test in a line: qHTS for induction of synthetic lethality in tumor cells producing 2HG: qHTS for the HT-1080-IDH1KD cell line.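 Also: 0% = DMSO wells and -100% = cell-free medium wells.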 The settings on record: HT-1080 IDH1 knockdown viability, ATP luminescence, 48 h; at 46.1 µM (top of the series). In general terms: qHTS replaces the single test concentration by a dilution series.
As for `O=[N+]([O-])c1cc([N+](=O)[O-])c(OC2CCCCC2O)c([N+](=O)[O-])c1` (configuration not stated), the activity, negative = toxicity is inactive: 10.5%. For the compound `CCN(CC)CCCNc1ccccc1[N+](=O)[O-].O=[N+]([O-])c1cc([N+](=O)[O-])c(O)c([N+](=O)[O-])c1`, the activity, negative = toxicity was inactive: -17.1%.

Consider `COc1ccc2c(c1O)-c1c(O)c(OC)cc3c1[C@H](C2)[N+](C)(C)CC3.O=[N+]([O-])c1cc([N+](=O)[O-])c([O-])c([N+](=O)[O-])c1[O-]`, for which the activity, negative = toxicity is inactive: 6.56%. For `O=C(OC1CN2CCC1CC2)c1ccc([N+](=O)[O-])cc1` (configuration not stated) the value was inactive: 4.46%; for `O=C1C(O)=C([N+](=O)[O-])C(=O)C(O)=C1[N+](=O)[O-]`, inactive: 10%. Turning to `O=P1(N(CCCl)CCCl)SCCCS1`, the activity, negative = toxicity was inactive: 0.646%. For `Cc1ccc(Nc2c([N+](=O)[O-])cc([N+](=O)[O-])cc2[N+](=O)[O-])cc1` the value was inactive: -14.7%; for `Cn1c(=O)[nH]cc(N(CCCl)CCCl)c1=O`, inactive: 4.36%. Turning to `N/C(=N\O)c1c(N)no[n+]1[O-]`, the activity, negative = toxicity is inactive: 19.8%. The result for `O=C(O)c1cccc(Nc2c([N+](=O)[O-])cc([N+](=O)[O-])cc2[N+](=O)[O-])c1` reads inactive: -18.9%. For `CCOC(=O)C(CC)C1=NC(C)(C)Cc2ccccc21.O=[N+]([O-])c1cc([N+](=O)[O-])c(O)c([N+](=O)[O-])c1` (configuration not stated) the value was inactive: 17.1%. Turning to `Cc1cc(N(CCCl)CCCl)ccc1C=O`, the activity, negative = toxicity was inactive: -5.56%.
